Laboratory results as given in ChEMBL document CHEMBL1127728, “Docking analysis of a series of benzylamino acetylcholinesterase inhibitors with a phthalimide, benzoyl, or indanone moiety” (J Med Chem, 1994).

Molecular target: T1, Acetylcholinesterase (Rattus norvegicus, UniProt P37136)
T1 sequence (P37136 whole entry): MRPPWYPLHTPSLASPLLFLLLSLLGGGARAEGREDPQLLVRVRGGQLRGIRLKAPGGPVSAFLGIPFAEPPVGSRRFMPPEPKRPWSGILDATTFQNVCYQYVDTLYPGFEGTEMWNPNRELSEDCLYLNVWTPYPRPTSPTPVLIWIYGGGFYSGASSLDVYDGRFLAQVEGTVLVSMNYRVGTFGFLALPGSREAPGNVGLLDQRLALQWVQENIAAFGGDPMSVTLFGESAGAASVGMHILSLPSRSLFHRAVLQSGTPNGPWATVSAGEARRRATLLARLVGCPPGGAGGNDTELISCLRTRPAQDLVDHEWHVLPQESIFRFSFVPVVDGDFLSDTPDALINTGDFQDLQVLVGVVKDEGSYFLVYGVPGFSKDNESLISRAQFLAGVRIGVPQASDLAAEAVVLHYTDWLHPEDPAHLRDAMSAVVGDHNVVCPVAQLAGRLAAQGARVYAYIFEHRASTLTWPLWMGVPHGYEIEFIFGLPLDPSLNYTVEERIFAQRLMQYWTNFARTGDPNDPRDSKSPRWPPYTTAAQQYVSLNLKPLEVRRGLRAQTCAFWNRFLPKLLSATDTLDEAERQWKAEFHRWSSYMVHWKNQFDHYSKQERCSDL
Experiment: Inhibition concentration against rat acetylcholinesterase

Row | Compound | IC50 [µM]
1 | O=C(CC1CCN(Cc2ccccc2)CC1)c1ccc(N2CCCC2)cc1 | 19
2 | CN(CCCCN1C(=O)c2ccc([N+](=O)[O-])cc2C1=O)Cc1ccccc1 | 8.23
